Measured values taken from US5646128A, “Methods for treating adenosine kinase related conditions” (priority 1994, dated 1997).

Protein sequences, listed by entry. Tags and fused reporters are not part of them. Residues count along the entry.
UniProt A0AAA9RZ79, 1-362: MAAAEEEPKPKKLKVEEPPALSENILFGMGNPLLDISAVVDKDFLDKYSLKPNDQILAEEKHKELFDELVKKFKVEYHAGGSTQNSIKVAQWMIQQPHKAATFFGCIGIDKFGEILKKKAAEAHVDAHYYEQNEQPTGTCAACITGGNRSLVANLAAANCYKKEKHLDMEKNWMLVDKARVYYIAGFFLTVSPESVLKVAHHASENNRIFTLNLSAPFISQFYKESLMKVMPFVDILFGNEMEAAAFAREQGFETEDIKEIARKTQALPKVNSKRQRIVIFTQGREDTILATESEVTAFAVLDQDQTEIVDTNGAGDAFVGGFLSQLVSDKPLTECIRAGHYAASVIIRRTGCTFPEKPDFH
UniProt A0A5G2R0F5, 1-362: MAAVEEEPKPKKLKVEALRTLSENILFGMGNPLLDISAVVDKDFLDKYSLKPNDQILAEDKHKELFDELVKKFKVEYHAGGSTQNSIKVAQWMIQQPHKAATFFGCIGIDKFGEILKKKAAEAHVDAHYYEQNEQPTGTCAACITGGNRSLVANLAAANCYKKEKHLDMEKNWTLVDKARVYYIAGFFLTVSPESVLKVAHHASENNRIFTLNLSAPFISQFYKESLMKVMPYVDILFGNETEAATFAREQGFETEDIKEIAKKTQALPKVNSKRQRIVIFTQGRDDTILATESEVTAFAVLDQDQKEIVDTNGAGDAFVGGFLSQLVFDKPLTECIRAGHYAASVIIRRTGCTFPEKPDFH

Tests used:
adenosine kinase = biological target: T1, adenosine kinase (Bos taurus, UniProt A0AAA9RZ79); assay: Adenosine kinase inhibition in intact cells (capillary endothelial cells from bovine heart); type: cell-based; details: 20 μM 2'-deoxycoformycin, 5 μM [3H]adenosine
T1 construct: endogenous in cells; host or cells: capillary endothelial cells from bovine heart
Protocol: Inhibition of adenosine kinase in intact cells was determined from the amount of incorporation of radioisotope from adenosine into the adenylates (AMP, ADP and ATP) in the presence of adenosine deaminase inhibition. […] The media was then discarded and the cells were treated with 50 μl 0.4M perchloric acid, centrifuged and the supernalants neutralized with 100 μl alanine: freon (1:4).

[1] = biological target: T2, purified pig heart adenosine kinase (Sus scrofa, UniProt A0A5G2R0F5); assay: Inhibition of adenosine kinase activity (purified pig heart enzyme); type: biochemical
T2 construct: purified pig heart adenosine kinase; from tissue; host or cells: pig heart
Protocol: Inhibition of enzyme activity was determined using a 0.1 mL assay mixture containing 50 mM Tris-maleate, pH 7.0, 0.1% (w/v) BSA, 1 mM ATP, 1 mM MgCl2, 0.5 μM [U-^14 C]adenosine (500 mCi/mmol) and 0.1 μg of purified pig heart adenosine kinase. Different concentrations of the test compounds were incubated in the assay mixture for 20 min. at 37° C. From each reaction mixture, 20 μl portions were removed and spotted on 2 cm^2 pieces of Whatman DE81 filter paper. […] The papers were dried, and [^14 C]AMP measured by scintillation counting.

C[C@H]1O[C@@H](n2cc(-c3ccccc3)c3c(Nc4ccccc4)ncnc32)[C@H](O)[C@@H]1O [GP-1-683, 7-(5-Deoxy-1-β-D-ribofuranosyl)-5-phenyl-4-phenylaminopyrrolo[2,3-d]pyrimidine]
IC50 (adenosine kinase): 73 nM | IC50 [1]: < 10 nM
